Test system: CaCo-2 epithelial cell monolayer
Test: In vitro CaCo-2 epithelial cell monolayer transport assay
Type: in vitro ADME
Conditions: 16 mM sodium caprate
Method: A standard in vitro assay utilizing an epithelial cell line, CaCo-2 (available through the American Type Culture Collection (ATCC), Rockville, Md., USA), has been developed to assess the ability of various enhancer compounds to promote transport of markers across an epithelial cell monolayer, as a model for the epithelial cell layer which functions in the lung to separate the alveolus from the pulmonary blood supply.
In this assay, the enhancer and polypeptide or other marker are dissolved in aqueous solution at various proportions and/or concentrations, and applied to the apical side of the cell monolayer. After 60 min incubation at 37° C. and 95% RH (relative humidity), the amount of the marker on the basolateral side of the cells is determined, e.g., by use of a radioactively labelled marker.

Substance: insulin
- Amount of polypeptide passed across the monolayer compared to absence of enhancer, in words: doubled

From patent US5952008A, “Processes for preparing compositions for inhalation” (AB Astra, priority 1993, dated 1999)
